Laboratory results taken from patent US9255080B2, “Quinazolinedione derivatives as PARP inhibitors” (Janssen Pharmaceutica NV, priority 2004, dated 2016).

Amino acid sequences for entries named in this document (tags omitted). A change or cut given only in a name is not applied to a line headed by its entry.
UniProt Q9H2K2: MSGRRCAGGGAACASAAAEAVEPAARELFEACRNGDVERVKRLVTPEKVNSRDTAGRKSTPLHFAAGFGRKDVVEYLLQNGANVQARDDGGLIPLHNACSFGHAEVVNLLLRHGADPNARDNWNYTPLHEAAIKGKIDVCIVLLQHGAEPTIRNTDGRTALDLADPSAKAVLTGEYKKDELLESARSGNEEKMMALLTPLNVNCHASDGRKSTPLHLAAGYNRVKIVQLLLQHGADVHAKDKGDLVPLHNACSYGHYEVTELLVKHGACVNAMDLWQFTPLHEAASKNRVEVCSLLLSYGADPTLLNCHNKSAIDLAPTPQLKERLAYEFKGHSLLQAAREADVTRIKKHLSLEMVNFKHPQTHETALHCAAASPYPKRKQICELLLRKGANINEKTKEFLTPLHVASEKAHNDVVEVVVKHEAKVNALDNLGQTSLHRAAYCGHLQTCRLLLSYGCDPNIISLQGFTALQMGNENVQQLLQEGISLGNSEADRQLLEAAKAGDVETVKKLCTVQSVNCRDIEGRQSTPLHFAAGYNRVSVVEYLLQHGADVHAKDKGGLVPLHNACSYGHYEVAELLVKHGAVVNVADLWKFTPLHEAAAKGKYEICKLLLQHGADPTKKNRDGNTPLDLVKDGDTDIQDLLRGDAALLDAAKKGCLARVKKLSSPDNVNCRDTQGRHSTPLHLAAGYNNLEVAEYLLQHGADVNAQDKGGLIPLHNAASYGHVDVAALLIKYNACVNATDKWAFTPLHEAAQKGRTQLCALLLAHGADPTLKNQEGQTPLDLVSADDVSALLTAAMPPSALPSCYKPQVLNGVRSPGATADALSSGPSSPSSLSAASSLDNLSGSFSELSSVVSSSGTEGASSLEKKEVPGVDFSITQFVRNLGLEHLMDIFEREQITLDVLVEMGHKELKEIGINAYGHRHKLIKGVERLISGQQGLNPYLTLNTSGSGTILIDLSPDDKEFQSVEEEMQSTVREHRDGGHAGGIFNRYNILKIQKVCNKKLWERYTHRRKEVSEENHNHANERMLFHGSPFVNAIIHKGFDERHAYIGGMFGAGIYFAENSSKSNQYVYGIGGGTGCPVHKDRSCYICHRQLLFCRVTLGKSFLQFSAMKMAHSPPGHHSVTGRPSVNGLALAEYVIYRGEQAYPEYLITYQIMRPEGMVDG
UniProt P09874, whole entry, looked up: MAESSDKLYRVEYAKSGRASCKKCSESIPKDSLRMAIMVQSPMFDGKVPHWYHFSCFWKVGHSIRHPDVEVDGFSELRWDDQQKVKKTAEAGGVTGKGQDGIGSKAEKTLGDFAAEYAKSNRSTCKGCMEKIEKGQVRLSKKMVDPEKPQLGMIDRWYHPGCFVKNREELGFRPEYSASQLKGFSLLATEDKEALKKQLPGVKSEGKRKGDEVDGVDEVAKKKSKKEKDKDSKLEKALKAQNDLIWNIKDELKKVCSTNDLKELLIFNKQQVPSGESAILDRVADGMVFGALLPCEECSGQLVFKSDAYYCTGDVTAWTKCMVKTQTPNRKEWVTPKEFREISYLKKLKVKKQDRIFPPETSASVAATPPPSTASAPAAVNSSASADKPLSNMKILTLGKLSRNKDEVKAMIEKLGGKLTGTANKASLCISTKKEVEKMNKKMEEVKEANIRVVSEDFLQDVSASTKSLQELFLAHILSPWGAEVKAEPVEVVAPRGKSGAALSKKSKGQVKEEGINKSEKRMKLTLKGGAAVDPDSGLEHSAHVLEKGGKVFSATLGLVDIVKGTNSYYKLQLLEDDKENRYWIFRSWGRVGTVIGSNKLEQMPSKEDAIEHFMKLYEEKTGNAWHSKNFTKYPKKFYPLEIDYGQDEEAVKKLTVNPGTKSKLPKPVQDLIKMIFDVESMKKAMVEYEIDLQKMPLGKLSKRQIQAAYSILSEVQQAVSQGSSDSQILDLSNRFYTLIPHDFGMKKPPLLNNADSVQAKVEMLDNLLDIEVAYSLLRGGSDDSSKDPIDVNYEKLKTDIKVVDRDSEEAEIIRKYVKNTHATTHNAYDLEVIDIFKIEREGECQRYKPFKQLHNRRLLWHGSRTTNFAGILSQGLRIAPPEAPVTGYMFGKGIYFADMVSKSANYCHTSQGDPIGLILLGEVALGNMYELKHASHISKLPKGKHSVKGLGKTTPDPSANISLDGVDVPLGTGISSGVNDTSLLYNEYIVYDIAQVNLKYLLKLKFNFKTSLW

Key:
Assay type in all cases: biochemical
[1] = target: TANK-2 enzyme (Homo sapiens, UniProt Q9H2K2); assay: In vitro scintillation proximity assay (SPA) for TANK-2 inhibitory activity; conditions: auto-poly(ADP-ribosyl)ation, [3H]-NAD+; 96-well results if available, otherwise 384-well
Experimental: In Vitro Scintillation Proximity Assay (SPA) for TANK-2 Inhibitory Activity
Compounds of the present invention were tested in an in vitro assay based on SPA technology with Ni Flash plates (96 or 384 well).
In principle, the assay relies upon SPA technology for the detection of auto-poly(ADP-ribosyl)ation of TANK-2 protein using [^3H]-nicotinamide adenine dinucleotide ([^3H]-NAD^+) as ADP-ribosyl donor.
A stock solution of [^3H]-NAD^+/NAD was made by adding 64.6 μl of [^3H]-NAD^+ (0.1 mCi/ml, supplier: Perkin Elmer) and 46.7 μl NAD-stock (10.7 mM, stored at −20° C., supplier Roche) to 1888.7 μl assay buffer (60 mM Tris/HCl, pH 7.4; 0.9 mM DTT; 6 mM MgCl2). The TANK-2 enzyme was produced as described in EP1238063. 60 μl of assay buffer, together with 1 μl of compound in DMSO, 20 μl of [^3H]-NAD^+/NAD and 20 μl of TANK-2 enzyme (final concentration 6 μg/ml) was added per well into a 96-well Ni-coated flash plate (Perkin Elmer). After incubation of the mixture for 120 min. at room temperature, the reaction was terminated by adding 60 μl of stopsolution (42.6 mg NAD in 6 ml H2O). […] Values were expressed as counts per minute (cpm). […] For each sample, the amount of cpm was expressed as a percentage of the mean cpm value of the controls. […] Herein the effects of test compounds are expressed as pIC50 (the negative log value of the IC50-value). […]

[2] = target: T1, PARP-1 enzyme (Homo sapiens, UniProt P09874); assay: In vitro scintillation proximity assay (SPA) for PARP-1 inhibitory activity; conditions: [3H]-NAD+, biotinylated histones, nicked DNA
[3] = target: T1, PARP-1 enzyme; assay: In vitro filtration assay for PARP-1 inhibitory activity; conditions: [32P]-NAD, histones, nicked DNA

O=c1[nH]c(=O)n(C2CCN(CCn3c(=O)[nH]c4ccccc4c3=O)CC2)c2ccccc12
in vitro SPA assay TANK-2 pIC50 [1]: 5.158
in vitro SPA assay PARP-1 pIC50 [2]: 6.257
in vitro filter assay PARP-1 pIC50 [3]: 5.642
